What was measured:
[1] = test system: Cullin-3 (CUL3) neddylation; experiment: AlphaLISA assay for Cullin-3 (CUL3) neddylation in TF 1 cells; settings: read-out: Neddylation IC50, 3 hours treatment
[2] = molecular target: DCN1 (DCUND1) protein PONY domain (Homo sapiens (Human), UniProt Q96GG9); experiment: TR-FRET assay, DCN1 binding with FAM-labeled probe; settings: read-out: TR FRET IC50 24 hr; 24 hr after treatment with compound
DCN1 protein = DCN1 protein (Homo sapiens (Human), UniProt Q96GG9); experiment: Intact Protein MS Analysis with the RapidFire-TOF System (covalent adduct formation); settings: MS Emax; 400 nM DCN1, 3 hours at room temperature

Amino acid sequences for entries named in this document (tags omitted). Residues count along the entry.
UniProt Q96GG9, 60-248 limits assumed: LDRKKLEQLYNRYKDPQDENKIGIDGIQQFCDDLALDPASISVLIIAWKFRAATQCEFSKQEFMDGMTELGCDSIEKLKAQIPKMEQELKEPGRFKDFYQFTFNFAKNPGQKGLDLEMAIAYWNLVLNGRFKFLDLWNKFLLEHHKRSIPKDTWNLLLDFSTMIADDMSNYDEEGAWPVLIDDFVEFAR
UniProt Q96GG9, whole entry: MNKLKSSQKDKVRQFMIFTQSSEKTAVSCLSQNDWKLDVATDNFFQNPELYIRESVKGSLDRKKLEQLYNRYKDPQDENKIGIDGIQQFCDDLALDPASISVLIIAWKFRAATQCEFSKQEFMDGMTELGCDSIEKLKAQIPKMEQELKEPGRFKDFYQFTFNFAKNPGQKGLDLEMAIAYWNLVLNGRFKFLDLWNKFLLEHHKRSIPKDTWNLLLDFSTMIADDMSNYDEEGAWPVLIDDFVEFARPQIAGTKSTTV

SMILES	IC50 [1]	IC50 [2]	% Adduct Formation (DCN1 protein)
CCN1C(=O)[C@@H](NC(=O)c2ccc3[nH]cnc3c2)[C@@H](C2CC2)c2c(C(=O)N3[C@H](C#N)C[C@H]4C[C@H]43)nn(C3CCOCC3)c21 [Compound I-632]	100 to 1000 nM	200 to 1000 nM	–
CCN1C(=O)[C@@H](NC(=O)Cc2c(F)ccc(C)c2Cl)[C@@H](C2CC2)c2c(C(=O)N3[C@H](C#N)C[C@H]4C[C@H]43)nn(C3CCOCC3)c21	–	1000 to 3000 nM	–
CCN1C(=O)[C@@H](NC(=O)c2cccc(Cl)c2)[C@@H](C2CC2)c2c(C(=O)N3[C@H](C#N)C[C@H]4C[C@H]43)nn(C3CCOCC3)c21	< 100 nM	< 200 nM	+++ (MS Emax % adduct formation greater than 80.0 and less than or equal to 100.0)
CCN1C(=O)[C@@H](NC(=O)Cc2ccc(OC(F)(F)F)cc2)[C@@H](C2CC2)c2c(C(=O)N3[C@H](C#N)C[C@H]4C[C@H]43)nn(C3CCOCC3)c21	–	1000 to 3000 nM	–
